# From US5886190A, “Rapid synthesis and use of 18F-fluoromisonidazole and analogs” (priority 1997, dated 1999)
# Tested on: mammary tumor
# Experiment: Autoradiographic studies in tumor-bearing rats
# Conditions: in vivo
# Experimental: The synthesis scheme for [^18 F]FETNIM is depicted in FIG. 6. Biodistribution studies of [^18 F]FETNIM were performed at 1, 2 and 4 hours in mammary tumor-bearing rats (10 μCi, iv, N=3/time interval). Autoradiograms were performed at 1 hour postinjection of [^18 F]FETNIM, and a comparison has been made with [^18 F]fluoromisonidazole (FMISO). Intratumoral oxygen tension measurements were performed using the Eppendorf computerized histographic system. Twenty to twenty-five pO2 measurements along each of 2 to 3 linear tracks were performed at 0.4 mm intervals on each tumor. PET imaging studies of [^18 F]FETNIM were performed in rabbits bearing V2 tumors (N=3, 4 mCI, iv) which were located on the right leg.
# Female Fischer 344 mammary tumor-bearing rats (n=3) after receiving [^18 F]FETNIM (2 mCi, iv) were sacrificed at 1 h. […] The rats were sacrificed at 1 hour postinjection. The rat body was fixed in a carboxymethyl cellulose (4%) block. The frozen body in a block was mounted to a cryostat (LKB 2250 cryo-microtome, Ijamsville, Md.) and 40 μm coronal sections were made. The section was freeze dried, then mounted on a x-ray film (X-Omat AR, Kodak, Rochester, N.Y.) for 24 hours.
structure (smiles),measurement,setting,value
"OC[C@H]1OC(O)[C@H]([18F])[C@@H](O)[C@@H]1O (some centres unmarked) [[^18 F]FDG, [^18 F]fluorodeoxyglucose, reference compound]",Distribution in tumor-bearing rat,,different from [^18 F]FETNIM and [^18 F]FMISO
same,Autoradiogram: metabolic activity of tumor,rat,the tumor was metabolically active
